Among the data in paper PMC10743990 are IC50 values, retold here.

Protein sequences, listed by entry. Tags and fused reporters are not part of them.
UniProt P49841, whole entry: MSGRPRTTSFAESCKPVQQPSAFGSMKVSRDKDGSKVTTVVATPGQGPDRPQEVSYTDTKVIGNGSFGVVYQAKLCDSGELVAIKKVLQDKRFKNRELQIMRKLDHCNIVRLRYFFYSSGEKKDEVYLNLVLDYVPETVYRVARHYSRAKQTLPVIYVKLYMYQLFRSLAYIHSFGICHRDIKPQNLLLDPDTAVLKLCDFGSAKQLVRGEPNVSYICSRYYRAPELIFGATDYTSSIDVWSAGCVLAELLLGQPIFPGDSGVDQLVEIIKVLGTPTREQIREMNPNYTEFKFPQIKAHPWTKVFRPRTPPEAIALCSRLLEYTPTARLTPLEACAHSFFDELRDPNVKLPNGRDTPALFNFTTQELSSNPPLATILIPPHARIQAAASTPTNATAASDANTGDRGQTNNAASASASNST

For the test, the target named is Glycogen synthase kinase-3 beta (GSK3β) (Homo sapiens, UniProt P49841). The test can be described thus: in vitro fluorescence-based Z'-LYTE kinase assay, 10-point dose-response.

Regarding `COC(=O)c1ccc2occ(-c3oc4ccc(C(=O)OC)cc4c3OCC(=O)Nc3cc(C)cc(C)c3)c2c1`, the IC50 (as a rule, the concentration at which inhibition is half-maximal) turned out to be 5.81 µM.
In turn, `O=C(Nc1ccc2nc(C(F)F)[nH]c2c1)c1ccnc2[nH]c(CC3CC3)nc12` displayed an IC50 of 0.64 µM.
